{"source": "paper PMC7835950", "about": "(Frontiers in Chemistry, 2021)", "key": {"OGDH [1]": {"target": "T1, OGDH (Rattus norvegicus, UniProt Q5XI78)", "T1 sequence (Q5XI78 41-1023)": "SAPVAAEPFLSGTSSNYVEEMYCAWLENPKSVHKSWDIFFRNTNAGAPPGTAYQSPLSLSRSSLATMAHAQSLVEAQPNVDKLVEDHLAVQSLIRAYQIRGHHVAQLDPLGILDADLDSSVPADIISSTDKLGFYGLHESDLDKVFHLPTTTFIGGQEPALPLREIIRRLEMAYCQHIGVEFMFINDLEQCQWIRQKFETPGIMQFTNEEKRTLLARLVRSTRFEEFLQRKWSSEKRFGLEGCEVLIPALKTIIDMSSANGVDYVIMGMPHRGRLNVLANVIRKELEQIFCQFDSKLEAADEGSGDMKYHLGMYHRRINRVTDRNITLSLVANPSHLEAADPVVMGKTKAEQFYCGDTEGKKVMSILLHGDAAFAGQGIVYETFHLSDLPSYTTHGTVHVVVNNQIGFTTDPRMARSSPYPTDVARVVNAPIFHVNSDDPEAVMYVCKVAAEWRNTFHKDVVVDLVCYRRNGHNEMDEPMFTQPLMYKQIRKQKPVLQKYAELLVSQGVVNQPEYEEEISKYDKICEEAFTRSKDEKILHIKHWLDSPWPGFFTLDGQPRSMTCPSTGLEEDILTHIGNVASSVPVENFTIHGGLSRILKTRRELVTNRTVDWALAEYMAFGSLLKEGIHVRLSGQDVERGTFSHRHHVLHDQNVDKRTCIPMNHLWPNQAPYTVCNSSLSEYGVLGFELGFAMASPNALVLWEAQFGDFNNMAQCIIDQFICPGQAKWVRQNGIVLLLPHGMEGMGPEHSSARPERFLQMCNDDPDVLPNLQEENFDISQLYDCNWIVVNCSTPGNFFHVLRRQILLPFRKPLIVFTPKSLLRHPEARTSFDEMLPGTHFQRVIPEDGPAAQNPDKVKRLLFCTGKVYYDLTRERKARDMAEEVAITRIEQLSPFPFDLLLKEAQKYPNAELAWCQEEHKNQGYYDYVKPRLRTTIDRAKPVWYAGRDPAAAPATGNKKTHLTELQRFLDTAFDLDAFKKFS", "T1 sequence (Q01205 69-454 partner)": "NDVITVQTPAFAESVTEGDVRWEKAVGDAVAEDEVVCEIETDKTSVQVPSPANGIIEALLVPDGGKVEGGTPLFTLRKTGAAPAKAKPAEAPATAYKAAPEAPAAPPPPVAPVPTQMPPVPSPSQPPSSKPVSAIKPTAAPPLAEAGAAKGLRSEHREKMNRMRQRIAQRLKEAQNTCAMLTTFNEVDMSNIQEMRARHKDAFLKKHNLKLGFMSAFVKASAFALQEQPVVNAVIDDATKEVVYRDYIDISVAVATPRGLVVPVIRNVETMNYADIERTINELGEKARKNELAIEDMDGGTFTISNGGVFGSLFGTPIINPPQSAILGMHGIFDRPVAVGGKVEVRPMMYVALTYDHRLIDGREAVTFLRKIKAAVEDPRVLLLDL", "T1 sequence (Q6P6R2 36-509 partner)": "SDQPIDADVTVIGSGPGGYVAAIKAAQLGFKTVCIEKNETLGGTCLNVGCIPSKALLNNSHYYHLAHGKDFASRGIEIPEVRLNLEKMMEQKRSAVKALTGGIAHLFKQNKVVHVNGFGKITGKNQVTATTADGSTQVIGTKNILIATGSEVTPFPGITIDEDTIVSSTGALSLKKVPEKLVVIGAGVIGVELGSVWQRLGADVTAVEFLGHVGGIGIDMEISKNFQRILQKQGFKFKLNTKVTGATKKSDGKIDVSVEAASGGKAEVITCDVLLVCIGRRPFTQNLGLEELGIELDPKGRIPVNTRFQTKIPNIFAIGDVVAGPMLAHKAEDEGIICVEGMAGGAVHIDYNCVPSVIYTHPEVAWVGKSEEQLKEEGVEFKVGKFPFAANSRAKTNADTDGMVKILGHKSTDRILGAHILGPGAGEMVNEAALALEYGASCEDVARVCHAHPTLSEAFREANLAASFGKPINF", "assay": "OGDH reaction (OG saturation) catalyzed by the enzyme preparation from rat liver", "type": "biochemical", "parameters": "the tissue fractions with the complexes enriched to a degree allowing for a robust detection of the enzymatic activities, have been used; from tissue", "experimental": "(§1) Reactions were started by addition of the enzyme preparations to the assay media. The amount of enzyme preparations (0.074 mg protein for the preparation from liver and 0.023 mg protein for the preparation from heart) were chosen to induce the lowest reliably measured reaction rate (ΔA340 = 0.001/min) at 0.01 mM OA without the phosphonates.\n(§2) Reaction rates were calculated from linear parts of the product accumulation curves (up to 10 min, dependent on the reaction rate), excluding the initial region, where mixing the reagents and solubilization of the preparation affected the optical density.\n(§3) The former equation describes one type of the active sites. […] The assumption was based on the presence of the two enzymes, OGDH and OADH, in the employed preparations.\n(§4) The Km and Amax values obtained in independent experiments using the non-linear and linear regression analyses of the experimental data, were averaged and presented as Mean ± Standard Error of Mean.\n(§5) The values of Ki were determined as the ratio of the corresponding Intercepts to the Slopes. In the two-site model, the Ki(1) and Ki(2) were calculated separately from the linear approximations of Km,1eff/Amax,1eff vs. [I] and Km,2eff/Amax,2eff vs. [I] dependences, respectively. […]"}, "OGDH [2]": {"target": "T1, OGDH", "assay": "OGDH reaction (OG saturation) catalyzed by the enzyme preparation from rat heart", "type": "biochemical", "parameters": "the tissue fractions with the complexes enriched to a degree allowing for a robust detection of the enzymatic activities, have been used; from tissue; host or cells: rat heart", "experimental": "as §1, §2, §3, §4, §5"}}}
{"smiles": "O=C(O)CCC(=O)C(=O)O", "note": "[OG, 2-oxoglutarate]", "values": [{"measurement": "Amax, OG saturation", "setting": "OGDH [1]", "value": "0.044 ± 0.005 μmol/min per mg of protein"}, {"measurement": "Amax, OG saturation", "setting": "OGDH [2]", "value": "0.73 ± 0.05 μmol/min per mg of protein"}]}
